# Measurements published in patent EP0017102A1, “Composition containing a phenyl benzoic acid compound and acetaminophen combination for the treatment of pain and inflammation and process for preparing the same” (Merck & Co., Inc., priority 1979, dated 1980).
# Experiment: in vivo
# Design: species or system mice
# Conditions: mouse, po
# Protocol: Measurements of the relative safety of the components and of the combination were carried out using acute oral toxicity studies in female mice. Randomly selected female albino mice (Carworth CF-1) weighing from 18 to 24 grams, and 6 to 7 weeks old, were used. The LD50 value for each drug was estimated from acute oral dose-response curves previously established. The following dose regimen was utilized:
# Both drugs were prepared as suspensions in 1% aqueous methylcellulose (100 cps.), diflunisal as a 2% concentration and acetaminophen as a 5% concentration. The preparations were administered by gastric intubation using a metal catheter attached to a springe. The various doses were administered randomly with 20 mice per group. Food was withheld one to two hours before and three hours following drug treatment. Water was available at all times. When the two drugs were administered,diflunisal was always given first. The surviving mice were observed closely on the day of treatment and daily thereafter for a total test period of 14 days. Body weights were taken pretest and on days 7 and 14.
smiles,measurement,value
"O=C(O)c1cc(-c2ccc(F)cc2F)ccc1O [Diflunisal, 2-hydroxy-5-(2',4'-difluorophenyl)benzoic acid]",LD50,400 mg/kg
